EC50 data for two compounds are collected here from BindingDB's records for doi:10.1021/jm031011g (Xenova, 2004).

The target in test [1] is Multidrug resistance-associated protein 1 (Homo sapiens) (UniProt P33527). The test can be described thus: Effective concentration to inhibit MRP1 in potentiation assay.
Test [2] shares this target. Described as above. The source holds these as a separate data set.

Take `CCNC(=O)c1c2n(c3c(N4CCN(CCc5ccc(F)c(F)c5)CC4)ncnc13)CCCC2` [4-{4-[2-(3,4-Difluoro-phenyl)-ethyl]-piperazin-1-yl}-6,7,8,9-tetrahydro-pyrimido[4,5-b]indolizine-10-carboxylic acid ethylamide]: the EC50 in test [1] amounted to 100 nM.

For the compound `O=C(Nc1cccnc1)c1c2n(c3c(N4CCN(CCc5ccc(F)c(F)c5)CC4)ncnc13)CCCC2` [4-{4-[2-(3,4-Difluoro-phenyl)-ethyl]-piperazin-1-yl}-6,7,8,9-tetrahydro-pyrimido[4,5-b]indolizine-10-carboxylic acid pyridin-3-ylamide], in test [2], the EC50 was determined as 235 nM.
